Data from paper PMC3701955 (Bioorganic & medicinal chemistry, 2012).
Where two headings read alike, the source gives them in different places.

Type: in vivo
Conditions: female Sprague–Dawley rats, iv; for Biodistribution of radioactivity in brain region, Amygdala / Biodistribution of radioactivity in brain region, Basal Hypothalamus / Biodistribution of radioactivity in brain region, Cerebellum / Biodistribution of radioactivity in brain region, Dorsal Striatum / Biodistribution of radioactivity in brain region, Remaining Brain / Biodistribution of radioactivity, Blood / Biodistribution of radioactivity, Bone / Biodistribution of radioactivity, Heart / Biodistribution of radioactivity, Kidney / Biodistribution of radioactivity, Lung / Biodistribution of radioactivity, Muscle / Biodistribution of radioactivity, Brain: mean ± SD; for Biodistribution of radioactivity, Brain: total brain

Substance: 1-(4-(3,4-Dihydroquinolin-1(2H)-yl)piperidin-1-yl)-2-(2-(2-[^18F]fluoroethoxy)-4-((1-(methylsulfonyl)piperidin-4-yl)oxy)phenyl)ethanone [[^18F]3]
- brain uptake across all time points (15-120 min): ≤ 0.05 ± 0.01 % ID/g
- Biodistribution of radioactivity in brain region, Amygdala (15 min): 0.05 ± 0.01 %ID/g
- Biodistribution of radioactivity in brain region, Basal Hypothalamus (15 min): 0.03 ± 0.01 %ID/g
- Biodistribution of radioactivity in brain region, Cerebellum (15 min): 0.02 ± 0.01 %ID/g
- Biodistribution of radioactivity in brain region, Dorsal Striatum (15 min): 0.02 ± 0.01 %ID/g
- Biodistribution of radioactivity in brain region, Remaining Brain (15 min): 0.02 ± 0.01 %ID/g
- Biodistribution of radioactivity, Blood (15 min): 0.07 ± 0.04 %ID/g
- Biodistribution of radioactivity, Bone (15 min): 0.05±0.01 %ID/g
- Biodistribution of radioactivity, Heart (15 min): 0.17 ± 0.09 %ID/g
- Biodistribution of radioactivity, Kidney (15 min): 0.27±0.11 %ID/g
- Biodistribution of radioactivity, Lung (15 min): 0.39 ± 0.3 %ID/g
- Biodistribution of radioactivity, Muscle (15 min): 0.07 ± 0.01 %ID/g
- Biodistribution of radioactivity, Brain (15 min): 0.02 ± 0.01 %ID/g
- Biodistribution of radioactivity in brain region, Amygdala (30 min): 0.10 ± 0.03 %ID/g
- Biodistribution of radioactivity in brain region, Basal Hypothalamus (30 min): 0.03 ± 0.01 %ID/g
- Biodistribution of radioactivity in brain region, Cerebellum (30 min): 0.05 ± 0.04 %ID/g
- Biodistribution of radioactivity in brain region, Dorsal Striatum (30 min): 0.03 ± 0.01 %ID/g
- Biodistribution of radioactivity in brain region, Remaining Brain (30 min): 0.02 ± 0.01 %ID/g
- Biodistribution of radioactivity, Blood (30 min): 0.06 ± 0.01 %ID/g
- Biodistribution of radioactivity, Bone (30 min): 0.05 ± 0.01 %ID/g
- Biodistribution of radioactivity, Heart (30 min): 0.09 ± 0.02 %ID/g
- Biodistribution of radioactivity, Kidney (30 min): 0.15 ± 0.04 %ID/g
- Biodistribution of radioactivity, Lung (30 min): 0.1 ± 0.03 %ID/g
- Biodistribution of radioactivity, Muscle (30 min): 0.06 ± 0.01 %ID/g
- Biodistribution of radioactivity, Brain (30 min): 0.02 ± 0.01 %ID/g
- Biodistribution of radioactivity in brain region, Amygdala (60 min): 0.11 ± 0.07 %ID/g
- Biodistribution of radioactivity in brain region, Basal Hypothalamus (60 min): 0.06 ± 0.01 %ID/g
- Biodistribution of radioactivity in brain region, Cerebellum (60 min): 0.02 ± 0.01 %ID/g
- Biodistribution of radioactivity in brain region, Dorsal Striatum (60 min): 0.03 ± 0.01 %ID/g
- Biodistribution of radioactivity in brain region, Remaining Brain (60 min): 0.02 ± 0.01 %ID/g
- Biodistribution of radioactivity, Blood (60 min): 0.04 ± 0.02 %ID/g
- Biodistribution of radioactivity, Bone (60 min): 0.03 ± 0.01 %ID/g
- Biodistribution of radioactivity, Heart (60 min): 0.07 ± 0.02 %ID/g
- Biodistribution of radioactivity, Kidney (60 min): 0.08 ± 0.02 %ID/g
- Biodistribution of radioactivity, Lung (60 min): 0.1 ± 0.03 %ID/g
- Biodistribution of radioactivity, Muscle (60 min): 0.03 ± 0.01 %ID/g
- Biodistribution of radioactivity, Brain (60 min): 0.02 ± 0.01 %ID/g
- Biodistribution of radioactivity in brain region, Amygdala (120 min): 0.13 ± 0.02 %ID/g
- Biodistribution of radioactivity in brain region, Basal Hypothalamus (120 min): 0.11 ± 0.04 %ID/g
- Biodistribution of radioactivity in brain region, Cerebellum (120 min): 0.04 ± 0.03 %ID/g
- Biodistribution of radioactivity in brain region, Dorsal Striatum (120 min): 0.05 ± 0.03 %ID/g
- Biodistribution of radioactivity in brain region, Remaining Brain (120 min): 0.03 ± 0.03 %ID/g
- Biodistribution of radioactivity, Blood (120 min): 0.09 ± 0.04 %ID/g
- Biodistribution of radioactivity, Bone (120 min): 0.07 ± 0.04 %ID/g
- Biodistribution of radioactivity, Heart (120 min): 0.08 ± 0.02 %ID/g
- Biodistribution of radioactivity, Kidney (120 min): 0.10 ± 0.02 %ID/g
- Biodistribution of radioactivity, Lung (120 min): 0.19 ± 0.15 %ID/g
- Biodistribution of radioactivity, Muscle (120 min): 0.07 ± 0.04 %ID/g
- Biodistribution of radioactivity, Brain (120 min): 0.04 ± 0.03 %ID/g
